Laboratory results from patent US7786328B2, “Cyclohexyl-1,4-diamine compounds” (dated 2010).

Chains of the proteins cited; added tags and fusions are not shown.
UniProt P35372, whole entry, looked up: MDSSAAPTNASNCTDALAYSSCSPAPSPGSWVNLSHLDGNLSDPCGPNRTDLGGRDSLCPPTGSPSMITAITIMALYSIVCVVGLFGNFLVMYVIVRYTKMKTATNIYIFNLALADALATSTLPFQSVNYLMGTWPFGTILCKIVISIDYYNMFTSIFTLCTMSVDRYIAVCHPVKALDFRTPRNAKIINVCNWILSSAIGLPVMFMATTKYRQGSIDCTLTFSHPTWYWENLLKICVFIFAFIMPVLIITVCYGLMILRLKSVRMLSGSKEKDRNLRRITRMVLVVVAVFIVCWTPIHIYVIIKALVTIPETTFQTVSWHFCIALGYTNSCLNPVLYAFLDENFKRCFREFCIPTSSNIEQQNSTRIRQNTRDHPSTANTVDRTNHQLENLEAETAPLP

Target: human μ-opiate receptor (Homo sapiens, UniProt P35372)
Assay: Measurement of the μ binding ([3H]-naloxone displacement, CHO-K1 membrane preparation)
Details: test substance 1 μM; inhibition of specific binding of 1 nmol/l [3H]-naloxone

Structure (SMILES) | μ-Opiate receptor [1 μM], % inhibition [%]
Cc1cccc(CC2(N(C)C)CCC(NC(=O)CCCOc3ccc(Cl)cc3C)CC2)c1 (stereo not drawn) | 57
CC(=O)OC(C(=O)NC1CCC(Cc2ccccc2)(N2CCCCC2)CC1)c1ccccc1 (stereo not drawn) | 74
Cc1cccc(CC2(N(C)C)CCC(NC(=O)CCc3ccccc3OC(=O)c3ccccc3)CC2)c1 (stereo not drawn) | 47
CSCC(=O)NC1CCC(Cc2cccc(F)c2)(N(C)C)CC1 (stereo not drawn) | 55
CC(=O)OC(C)C(=O)NC1CCC(Cc2ccccc2)(N(C)C)CC1 (stereo not drawn) | 55
CN(C)C1(Cc2ccccc2F)CCC(NC(=O)C(C)(C)Oc2ccc(CCNC(=O)c3ccc(Cl)cc3)cc2)CC1 (stereo not drawn) | 48
CN(C)C1(Cc2cccc(F)c2)CCC(NC(=O)COc2ccccc2)CC1 (stereo not drawn) | 84
O=C(OCc1ccccc1C(=O)NC1CCC(Cc2ccccc2)(N2CCCCC2)CC1)c1ccccc1 (stereo not drawn) | 76
CN(C)C1(Cc2ccccc2)CCC(NC(=O)CCCOc2ccccc2)CC1 (stereo not drawn) | 65
CC(Oc1ccccc1)C(=O)NC1CCC(Cc2cccc(Cl)c2)(N(C)C)CC1 (stereo not drawn) | 70
O=C(COc1ccc(Cl)cc1)NC1CCC(Cc2ccccc2)(N2CCCCC2)CC1 (stereo not drawn) | 50
CN(C)C1(Cc2ccc(Cl)cc2)CCC(NC(=O)CCCOc2ccccc2)CC1 (stereo not drawn) | 47
CC(=O)OC(C(=O)NC1CCC(Cc2cccc(Cl)c2)(N(C)C)CC1)c1ccccc1 (stereo not drawn) | 56
CC(=O)OC(C(=O)NC1CCC(Cc2ccccc2Cl)(N(C)C)CC1)c1ccccc1 (stereo not drawn) | 80
CC(=O)OCC(=O)NC1CCC(Cc2ccccc2Cl)(N(C)C)CC1 (stereo not drawn) | 48
CC(=O)OC(C(=O)NC1CCC(Cc2ccc(F)cc2)(N(C)C)CC1)c1ccccc1 (stereo not drawn) | 45
CN(C)C1(Cc2ccccc2F)CCC(NC(=O)COc2cccc(Cl)c2)CC1 (stereo not drawn) | 84
COc1ccc(Oc2ccc([N+](=O)[O-])cc2C(=O)NC2CCC(Cc3ccc(Cl)cc3)(N(C)C)CC2)cc1 (stereo not drawn) | 65
Cc1ccc(CC2(N(C)C)CCC(NC(=O)c3ccccc3COC(=O)c3ccccc3)CC2)cc1 (stereo not drawn) | 96
Cc1cc(Cl)ccc1OCCCC(=O)NC1CCC(Cc2ccccc2)(N(C)C)CC1 (stereo not drawn) | 52
CN(C)C1(Cc2ccccc2Cl)CCC(NC(=O)COCc2ccccc2)CC1 (stereo not drawn) | 79

Structure (SMILES) | μ-Opiate receptor [1 μM], % inhibition [%]
CN(C)C1(Cc2ccccc2F)CCC(NC(=O)COc2ccccc2)CC1 (stereo not drawn) | 75
CC(=O)OC(C)(C)C(=O)NC1CCC(Cc2cccc(F)c2)(N(C)C)CC1 (stereo not drawn) | 41
Cc1ccccc1CC1(N(C)C)CCC(NC(=O)COc2ccccc2)CC1 (stereo not drawn) | 85
O=C(COc1ccc(Cl)cc1)NC1CCC(Cc2ccccc2)(N2CCCC2)CC1 (stereo not drawn) | 63
CN(C)C1(Cc2cccc(Cl)c2)CCC(NC(=O)c2ccccc2Nc2ccccc2)CC1 (stereo not drawn) | 64
Cc1ccc(CC2(N(C)C)CCC(NC(=O)CCCOc3ccc(Cl)cc3C)CC2)cc1 (stereo not drawn) | 55
CCOCC(=O)NC1CCC(Cc2ccccc2F)(N(C)C)CC1 (stereo not drawn) | 54
Cc1cccc(CC2(N(C)C)CCC(NC(=O)c3ccccc3Nc3ccccc3)CC2)c1 (stereo not drawn) | 73
Cc1cccc(CC2(N(C)C)CCC(NC(=O)c3cccnc3Oc3ccccc3)CC2)c1 (stereo not drawn) | 45
CN(C)C1(Cc2ccccc2Cl)CCC(NC(=O)C(C)(C)Oc2ccc(C(N)=O)cc2)CC1 (stereo not drawn) | 89
CN(C)C1(Cc2ccccc2F)CCC(NC(=O)COc2ccc(Cl)cc2)CC1 (stereo not drawn) | 85
CN(C)C1(Cc2ccccc2F)CCC(NC(=O)CSc2ccc(C(F)(F)F)cn2)CC1 (stereo not drawn) | 61
CC(=O)OC(C)C(=O)NC1CCC(Cc2ccccc2C)(N(C)C)CC1 (stereo not drawn) | 63
CN(C)C1(Cc2cccc(Cl)c2)CCC(NC(=O)CSCc2ccccc2)CC1 (stereo not drawn) | 73
Cc1ccc(CC2(N(C)C)CCC(NC(=O)COCc3ccccc3)CC2)cc1 (stereo not drawn) | 71
O=C(OCc1ccccc1C(=O)NC1CCC(c2ccccc2)(N2CCCCC2)CC1)c1ccccc1 (stereo not drawn) | 44
CC(C)=NOC(C)C(=O)NC1CCC(Cc2ccccc2F)(N(C)C)CC1 (stereo not drawn) | 41
COC(=O)CCCC(=O)NC1CCC(Cc2ccccc2)(N(C)C)CC1 (stereo not drawn) | 49
CN(C)C1(Cc2cccc(Cl)c2)CCC(NC(=O)c2ccccc2COC(=O)c2ccccc2)CC1 (stereo not drawn) | 100
COCCOCC(=O)NC1CCC(Cc2ccccc2)(N(C)C)CC1 (stereo not drawn) | 47
COc1ccc(Oc2ccc([N+](=O)[O-])cc2C(=O)NC2CCC(Cc3ccccc3F)(N(C)C)CC2)cc1 (stereo not drawn) | 96

Structure (SMILES) | μ-Opiate receptor [1 μM], % inhibition [%]
Cc1cccc(CC2(N(C)C)CCC(NC(=O)COc3cccc(Cl)c3)CC2)c1 (stereo not drawn) | 80
CC(Oc1ccccc1)C(=O)NC1CCC(Cc2ccccc2F)(N(C)C)CC1 (stereo not drawn) | 73
CSCC(=O)NC1CCC(Cc2ccccc2F)(N(C)C)CC1 (stereo not drawn) | 56
CN(C)C1(Cc2ccc(Cl)cc2)CCC(NC(=O)CSCc2ccccc2)CC1 (stereo not drawn) | 69
CN(C)C1(Cc2ccccc2F)CCC(NC(=O)c2ccccc2COC(=O)c2ccccc2)CC1 (stereo not drawn) | 96
CC(=O)OC(C(=O)NC1CCC(Cc2ccccc2F)(N(C)C)CC1)c1ccccc1 (stereo not drawn) | 63
CN(C)C1(CCc2ccccc2)CCC(NC(=O)C(C)(C)Oc2ccc(CCNC(=O)c3ccc(Cl)cc3)cc2)CC1 (stereo not drawn) | 41
CN(C)C1(Cc2cccc(Cl)c2)CCC(NC(=O)COc2ccccc2)CC1 (stereo not drawn) | 69
CN(C)C1(Cc2ccc(F)cc2)CCC(NC(=O)COc2ccccc2)CC1 (stereo not drawn) | 51
Cc1ccccc1CC1(N(C)C)CCC(NC(=O)C(C)Oc2ccccc2)CC1 (stereo not drawn) | 79
Cc1ccc(CC2(N(C)C)CCC(NC(=O)C(C)Oc3ccccc3)CC2)cc1 (stereo not drawn) | 49
Cc1ccc(CC2(N(C)C)CCC(NC(=O)COc3ccc(Cl)cc3)CC2)cc1 (stereo not drawn) | 56
CC(Oc1ccccc1)C(=O)NC1CCC(CCc2ccccc2)(N(C)C)CC1 (stereo not drawn) | 54
CN(C)C1(Cc2cccc(F)c2)CCC(NC(=O)C(C)(C)Oc2ccc(CCNC(=O)c3ccc(Cl)cc3)cc2)CC1 (stereo not drawn) | 48
CC(=O)OC(C(=O)NC1CCC(Cc2cccc(C)c2)(N(C)C)CC1)c1ccccc1 (stereo not drawn) | 64
COc1ccc(Oc2ccc([N+](=O)[O-])cc2C(=O)NC2CCC(Cc3cccc(C)c3)(N(C)C)CC2)cc1 (stereo not drawn) | 86
CN(C)C1(Cc2ccccc2Cl)CCC(NC(=O)COc2ccccc2)CC1 (stereo not drawn) | 86
Cc1cc(Cl)ccc1OCCCC(=O)NC1CCC(Cc2ccccc2)(N2CCCCC2)CC1 (stereo not drawn) | 45
CC(Oc1ccccc1)C(=O)NC1CCC(Cc2ccc(Cl)cc2)(N(C)C)CC1 (stereo not drawn) | 56
CN(C)C1(CCc2ccccc2)CCC(NC(=O)COc2ccc(Cl)cc2)CC1 (stereo not drawn) | 49
Cc1cccc(CC2(N(C)C)CCC(NC(=O)CSCc3ccccc3)CC2)c1 (stereo not drawn) | 71
